pEC50, pKi: −log10 of the molar value.

By UniProt entry, the sequences of proteins in these tests, tags left out.
UniProt P33533, whole entry: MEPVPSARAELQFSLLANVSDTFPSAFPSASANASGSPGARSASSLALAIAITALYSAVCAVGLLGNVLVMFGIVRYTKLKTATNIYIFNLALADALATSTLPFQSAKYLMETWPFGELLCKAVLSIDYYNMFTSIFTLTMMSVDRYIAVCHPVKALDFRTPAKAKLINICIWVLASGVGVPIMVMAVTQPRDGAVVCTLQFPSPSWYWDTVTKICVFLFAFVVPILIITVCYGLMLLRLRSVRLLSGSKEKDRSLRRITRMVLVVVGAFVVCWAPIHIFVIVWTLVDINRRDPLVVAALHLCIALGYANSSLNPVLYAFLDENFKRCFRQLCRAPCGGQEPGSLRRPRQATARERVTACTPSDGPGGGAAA
UniProt P33535, whole entry: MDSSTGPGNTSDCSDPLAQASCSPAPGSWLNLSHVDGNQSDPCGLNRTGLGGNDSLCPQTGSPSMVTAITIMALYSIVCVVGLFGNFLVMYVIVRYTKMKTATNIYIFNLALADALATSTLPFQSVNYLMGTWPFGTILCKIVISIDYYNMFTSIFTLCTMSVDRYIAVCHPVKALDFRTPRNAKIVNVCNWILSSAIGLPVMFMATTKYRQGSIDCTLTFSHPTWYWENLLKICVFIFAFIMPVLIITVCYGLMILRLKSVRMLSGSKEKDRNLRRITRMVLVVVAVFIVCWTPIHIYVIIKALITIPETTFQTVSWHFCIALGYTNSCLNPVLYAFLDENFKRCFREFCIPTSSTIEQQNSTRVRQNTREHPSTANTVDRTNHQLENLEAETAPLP
UniProt P35372, whole entry: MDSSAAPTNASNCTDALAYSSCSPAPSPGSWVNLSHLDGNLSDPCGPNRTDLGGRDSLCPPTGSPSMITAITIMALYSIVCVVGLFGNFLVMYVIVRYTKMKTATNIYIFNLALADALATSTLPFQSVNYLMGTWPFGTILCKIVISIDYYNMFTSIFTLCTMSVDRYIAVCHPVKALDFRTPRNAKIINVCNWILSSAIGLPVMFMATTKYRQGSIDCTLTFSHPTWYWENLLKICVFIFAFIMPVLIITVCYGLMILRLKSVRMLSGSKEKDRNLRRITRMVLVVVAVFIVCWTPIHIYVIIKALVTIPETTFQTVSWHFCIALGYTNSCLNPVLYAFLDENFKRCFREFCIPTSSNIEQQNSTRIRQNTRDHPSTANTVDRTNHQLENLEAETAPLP

The target of assay [1] is T1, delta opioid receptor (Rattus norvegicus, UniProt P33533). As to the kind of experiment: Rat Brain Delta Opioid Receptor Binding Assay-Version 1a ([3H]naltrindole). The settings on record: read-out: r Ki δ Ver. 1a; rat forebrain membranes, 0.1 nM [3H]naltrindole; margin of error 10-20%. Here is the method: Male, Wistar rats (150-250 g, VAF, Charles River, Kingston, N.Y.) were killed by cervical dislocation, and their brains removed and placed immediately in ice-cold Tris HCl buffer (50 mM, pH 7.4). The forebrains were separated from the remainder of the brain by a coronal transection, beginning dorsally at the colliculi and passing ventrally through the midbrain-pontine junction. After dissection, the forebrains were homogenized in Tris buffer in a Teflon®-glass homogenizer. The homogenate was diluted to a concentration of 1 g of forebrain tissue per 80 mL Tris and centrifuged at 39,000×g for 10 min. The pellet was resuspended in the same volume of Tris buffer containing 5 mM MgCl2 with several brief pulses from a Polytron homogenizer. This particulate preparation was used for the delta opioid binding assay. Following incubation with 0.1 nM of the delta selective ligand [^3H]naltrindole at 25° C. for 2.5 h in a 96-well plate with total 1 mL, the plate contents were filtered through Wallac filtermat B sheets on a Tomtec 96-well harvester. […] To each sample area, Betaplate Scint scintillation fluid (LKB) was added and the resulting radioactivity quantified on a LKB (Wallac) 1205 BetaPlate liquid scintillation counter. Kd and Ki values were calculated using the GraphPad PRISM data analysis program.

Assay [2] addresses T1, delta opioid receptor. As to the kind of experiment: Rat Brain Delta Opioid Receptor Binding Assay ([3H]DPDPE). The settings on record: read-out: r Ki δ, rat forebrain membranes, margin of error 10-20%. The procedure:
Male, Wistar rats (150-250 g, VAF, Charles River, Kingston, N.Y.) are killed by cervical dislocation, and their brains removed and placed immediately in ice cold Tris HCl buffer (50 mM, pH 7.4). The forebrains are separated from the remainder of the brain by a coronal transection, beginning dorsally at the colliculi and passing ventrally through the midbrain-pontine junction. After dissection, the forebrains are homogenized in Tris buffer in a Teflon® glass homogenizer. The homogenate is diluted to a concentration of 1 g of forebrain tissue per 80 mL Tris and centrifuged at 39,000×g for 10 min. The pellet is resuspended in the same volume of Tris buffer containing 5 mM MgCl2 with several brief pulses from a Polytron homogenizer. This particulate preparation is used for the delta opioid binding assays. Following incubation with the delta selective peptide ligand ˜4 nM [^3H]DPDPE at 25° C. for 2.5 h in a 96-well plate with total volume of 1 mL, the plate contents are filtered through Wallac filtermat B sheets on a Tomtec 96-well harvester. The filters are rinsed three times with 2 mL of 10 mM HEPES (pH 7.4), and dried in a microwave oven 2 min twice. To each sample area 2×50 μL of Betaplate Scint scintillation fluid (LKB) is added and analyzed on a LKB (Wallac) 1205 BetaPlate liquid scintillation counter.
The data are used to calculate either the % inhibition compared to control binding (when only a single concentration of test compound is evaluated) or a Ki value (when a range of concentrations is tested). % inhibition is calculated as: [(total dpm−test compound dpm)/(total dpm−nonspecific dpm)]*100. Kd and Ki values were calculated using GraphPad PRISM data analysis program.

The test system of a further assay is male CD-1 mice. In words: In Vivo Assay: Upper GI Tract Transit (MUGIT). The settings on record: dose 30 (mg), p.o. The procedure:
Methods: The animals used in these studies were male CD-1 mice, ave. wt. ˜30 g. Mice were housed under 12 h/12 h light/dark cycle, food & water ad lib. On the day of the experiment mice were assigned to experimental groups, including one vehicle-only group (=control). At 30 min before administration of carmine dye, animals were dosed with vehicle or vehicle-plus-compound, mice were returned to their home cages after drug administration. After administration of carmine, the animals were either returned to their home cages (non-stressed) or individually placed in the same metal cages as used in the fecal output or entire GI tract transit to induce a novel environment stress. One hour after administration of carmine, mice were sacrificed by cervical dislocation, the abdomen opened midventrally, the small intestine from pylorus to cecum was removed, the mesentery divided in order to lay the intestine straight & flat—without stretching. The total length of intestine and the length of carmine-dyed intestine were measured in order to determine the percent of the upper GI tract over which transit had occurred as follows: {(Length of carmine-dyed intestine)/(Total length of intestine)}×100=% upper GI transit. The data expressed were group means±SD (or s.e.m.) and data expressed as % of control.

For the next assay, the target named is mu opioid receptor (Rattus norvegicus, UniProt P33535). In words: Rat Brain Mu Opioid Receptor Binding Assay (and Version 2a, [3H]DAMGO). The note with it: read-out: r Ki μ, rat forebrain membranes, margin of error 10-20%.
Assay [3] addresses mu opioid receptor (CHO-hMOR cell membranes) (Homo sapiens, UniProt P35372). As to the kind of experiment: Mu Opioid Receptor Functional Assay: [35S]GTPγS Binding in CHO-hMOR Cell Membranes, Versions 1 and 2. The procedure:
CHO-hMOR cell membranes were purchased from Receptor Biology, Inc. (Baltimore, Md.). About 10 mg/ml of membrane protein was suspended in 10 mM TRIS-HCl pH 7.2, 2 mM EDTA, 10% sucrose, and the suspension kept on ice. One ml of membranes was added to 15 ml cold binding assay buffer containing 50 mM HEPES, pH 7.6, 5 mM MgCl2, 100 mM NaCl, 1 mM DTT and 1 mM EDTA. The membrane suspension was homogenized with a Polytron and centrifuged at 3,000 rpm for 10 min. The supernatant was then centrifuged at 18,000 rpm for 20 min. The pellet was resuspended in 10 ml assay buffer with a Polytron.
The membranes were preincubated with wheat germ agglutinin coated SPA beads (Amersham) at 25° C. for 45 min in the assay buffer. The SPA bead (5 mg/ml) coupled membranes (10 μg/ml) were then incubated with 0.5 nM [^35S]GTPγS in the assay buffer. […] A range of concentrations of receptor agonists was used to stimulate [^35S]GTPγS binding. Both basal and non-specific binding was tested in the absence of agonist; non-specific binding determination included 10 μM unlabeled GTPγS.
Compounds were tested for function as antagonists by evaluating their potential to inhibit agonist-stimulated GTPγS binding. Radioactivity was quantified on a Packard TopCount. The following parameters were calculated:
[formula] % Inhibition=(% stimulation by 1 μM SNC80−% stimulation by 1 μM SNC80 in presence of test compound)×100/(% Stimulation by 1 μM SNC80−100)
EC50 values were calculated using GraphPad Prism.
(In general: Binding of GTPγS marks nucleotide exchange on a G protein.)

Turning to `C[C@@H](c1nc(-c2ccccc2)c[nH]1)N(Cc1cccc(C(=O)O)c1)C(=O)[C@@H](N)Cc1ccc(C(N)=O)cc1`, the figures for the pKi on delta opioid receptor [1], on delta opioid receptor [2] and on mu opioid receptor were 8.35, 8.99 and 8.86, respectively. In the assay with male CD-1 mice, the “upper GI transit (% ctrl)” value turned out to be 96.5 % ctrl. The pEC50 (usually the negative decadic logarithm of the EC50, by convention in mol/L) in assay [3] (read-out: MOR GTP binding assay v2 EC50, version 2) is 7.25. Also, in assay [3] (version 2, % inhibition of agonist-stimulated GTPγS binding), the “MOR GTP binding assay_v2 (% I)” value is on record as 6.61%.

The values are drawn from US10213415B2, “Compounds as opioid receptor modulators” (JANSSEN PHARMACEUTICA NV, priority 2004, dated 2019).
